Tested on: Cystic fibrosis transmembrane conductance regulator (Homo sapiens), P13569 [F508del]
Test: Corrector activity at CFTR F508del mutant (unknown origin) transfected in human HEK293 membrane cells assessed as increase in CFTR level at 3 uM incubated for 24 hrs in presence of VX-809 by using pHTomato probe based fluorescence inverted microscopic analysis relative to VX-809 alone
Type: cell-based

Sequences of proteins named here, by UniProt entry; tags and fusion partners are left off. A line that says so, or that is headed by a name, gives the form on record, which may keep a tag or linker.
Cystic fibrosis transmembrane conductance regulator (Homo sapiens), P13569, UniProt P13569, as listed by the source: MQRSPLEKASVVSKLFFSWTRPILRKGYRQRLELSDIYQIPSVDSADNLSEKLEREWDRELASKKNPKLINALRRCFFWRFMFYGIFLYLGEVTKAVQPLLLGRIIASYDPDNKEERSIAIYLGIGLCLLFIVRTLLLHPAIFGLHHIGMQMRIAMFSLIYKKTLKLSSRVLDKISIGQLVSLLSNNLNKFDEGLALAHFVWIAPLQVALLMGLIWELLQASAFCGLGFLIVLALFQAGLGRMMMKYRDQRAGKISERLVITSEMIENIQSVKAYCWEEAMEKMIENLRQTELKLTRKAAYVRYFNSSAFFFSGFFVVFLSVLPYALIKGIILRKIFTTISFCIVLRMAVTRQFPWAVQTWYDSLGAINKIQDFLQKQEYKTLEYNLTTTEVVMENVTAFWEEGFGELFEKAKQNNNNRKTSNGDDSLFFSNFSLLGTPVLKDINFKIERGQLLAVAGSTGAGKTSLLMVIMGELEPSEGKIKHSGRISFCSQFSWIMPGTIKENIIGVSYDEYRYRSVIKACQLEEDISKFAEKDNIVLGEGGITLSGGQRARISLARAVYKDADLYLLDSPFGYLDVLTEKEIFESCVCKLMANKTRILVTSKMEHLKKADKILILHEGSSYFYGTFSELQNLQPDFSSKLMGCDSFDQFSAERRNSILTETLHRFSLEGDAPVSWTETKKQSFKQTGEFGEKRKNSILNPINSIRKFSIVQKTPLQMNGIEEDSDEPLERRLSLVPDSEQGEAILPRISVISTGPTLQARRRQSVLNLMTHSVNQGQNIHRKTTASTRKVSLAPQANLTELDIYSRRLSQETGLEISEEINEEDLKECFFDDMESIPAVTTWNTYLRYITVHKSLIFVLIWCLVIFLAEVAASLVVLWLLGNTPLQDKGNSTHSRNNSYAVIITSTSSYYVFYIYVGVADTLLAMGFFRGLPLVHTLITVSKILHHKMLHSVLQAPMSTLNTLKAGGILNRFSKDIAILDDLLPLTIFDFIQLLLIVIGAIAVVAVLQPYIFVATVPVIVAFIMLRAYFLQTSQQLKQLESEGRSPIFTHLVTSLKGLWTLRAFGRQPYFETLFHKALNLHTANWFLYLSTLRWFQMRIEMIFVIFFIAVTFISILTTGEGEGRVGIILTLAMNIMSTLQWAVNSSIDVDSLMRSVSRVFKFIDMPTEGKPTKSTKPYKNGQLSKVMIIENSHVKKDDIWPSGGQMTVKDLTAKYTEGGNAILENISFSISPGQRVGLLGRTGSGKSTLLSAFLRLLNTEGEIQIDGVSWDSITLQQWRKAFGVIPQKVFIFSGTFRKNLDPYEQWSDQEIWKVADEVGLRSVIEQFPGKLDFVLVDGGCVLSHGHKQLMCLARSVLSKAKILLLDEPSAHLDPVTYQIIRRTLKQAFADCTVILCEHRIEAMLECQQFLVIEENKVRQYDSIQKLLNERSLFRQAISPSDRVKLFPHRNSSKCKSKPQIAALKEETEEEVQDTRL

## CC(=O)c1cccc(N(CCO)c2nc(-c3sc(NC(=O)C(C)(C)C)nc3C)cs2)c1
  fold change (FC): 3

From ChEMBL document CHEMBL4321853, “Multitarget CFTR Modulators Endowed with Multiple Beneficial Side Effects for Cystic Fibrosis Patients: Toward a Simplified Therapeutic Approach †” (J Med Chem, 2019)
